In PubChem BioAssay AID652017 (The Scripps Research Institute Molecular Screening Center, 2013):
The entries are a selection whose mix differs from that of the whole data set. Activity calls are given as the source filed them. No stated cut-off is given here; in the data, active means activation above about 7.8%; inactive means the rest.

Assay: SMARCA2 (BRM) function activators, primary screen, cell-based, luminescence, high throughput (AID 652017);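 further: 0% = vehicle wells and 100% = reference activator wells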
Settings: MG213 cells, MMTV-luciferase reporter, dexamethasone, overnight; at 9.1 µM; active compounds read high

Compound | activation
O=[N+]([O-])c1ncn(CCn2ncnc2[N+](=O)[O-])n1 | inactive: -3.16%
CC(C)(C)C(=O)NC(Sc1ccncn1)C(Cl)(Cl)Cl (centres undefined) | inactive: 1.43%
O=C(O)CNc1ccc([As](=O)(O)O)cc1 | inactive: -2.01%
COC(=O)C1(C)COP(=O)(Nc2ccccc2)OC1 (centres undefined) | inactive: -4.8%
O=[N+]([O-])c1cccc(NC2=NCC(CBr)S2)c1 (centres undefined) | inactive: -3.71%
O=P1(N(CCCl)CCCl)OCCCS1 (centres undefined) | inactive: -1.46%
O=C(Nc1cc([As](=O)(O)O)ccc1O)c1ccccc1 | inactive: -2.98%
CCN(/C(=N/P(=O)(N1CCOCC1)N1CCOCC1)N1CCOCC1)c1ccc(OC)cc1 | inactive: 1.66%
Nc1ccc([As](=O)(O)c2ccc(N)cc2)cc1 | inactive: -4.41%
C[N+]1=C2C=CC=CC=C2SC12C([N+](=O)[O-])=CC([N+](=O)[O-])=C[C-]2[N+](=O)[O-] (centres undefined) | inactive: -8.65%
CC1CCN(C(=O)Oc2c(Cl)cc(Cl)c3cccnc23)CC1 | inactive: -0.66%
c1cc(-c2nn[nH]n2)ccc1-c1nn[nH]n1 | inactive: -1.98%
CC(C)c1nc(Nc2ccccc2)n(P(=O)(N(C)C)N(C)C)n1 | inactive: -2.48%
CC(C)=N/N=C(\N)N[N+](=O)[O-] | inactive: 0.32%
CN(C)C(=O)OCCc1n(C)cc[n+]1C | inactive: 0.02%
COc1ccc(C2=NCC(CBr)S2)cc1 (centres undefined) | inactive: -0.69%
Cc1ccc(NP(=O)(Oc2ccccc2)Oc2ccccc2)nc1 | inactive: -1.15%
O=[N+]([O-])c1cc([N+](=O)[O-])c(CCNc2ccccc2)c([N+](=O)[O-])c1 | inactive: -2.47%
CCc1nc2c(n1)c1c(non1O)c1c2no[n+]1[O-] | inactive: -8.53%
CC(=O)N1C2C3N(C(C)=O)C1C1N(C(C)=O)C(C(N1C(C)=O)N3C(C)=O)N2C(C)=O | inactive: 1.91%
O=[N+]([O-])c1cccc2n[nH]nc12 | inactive: -4.56%
Oc1ccccc1CNc1ccccn1 | inactive: -3%

Compound | activation
O=C(NC(Sc1ccncn1)C(Cl)(Cl)Cl)c1ccccc1 (centres undefined) | inactive: -3.69%
Nc1cc(N)c2nonc2c1[N+](=O)[O-] | inactive: -5.5%
CC(C)CC(=O)NC(Sc1ccc(Cl)cc1)C(Cl)(Cl)Cl (centres undefined) | inactive: -2.05%
CN(C(=O)Cc1ccc(Cl)c(Cl)c1)[C@H]1CCCC[C@H]1N1CCCC1 | inactive: -6.09%
Cc1ccc(N/C(=N/P(=O)(N2CCOCC2)N2CCOCC2)N2CCOCC2)cc1 | inactive: -1.8%
NC(=O)c1cc([N+](=O)[O-])cc([N+](=O)[O-])c1N | inactive: -3.48%
CN1CCCC(OC(=O)C(c2ccccc2)c2ccccc2)C1 (centres undefined) | inactive: -1.29%
Clc1ccc(Cl)c(NC2=NCC(CBr)S2)c1 (centres undefined) | inactive: -2.47%
COc1ccccc1OP(=O)(Nc1ccc(C)cn1)Oc1ccccc1OC | inactive: -3.97%
Cc1ccc(OP(=O)(Nc2nccs2)Oc2ccc(C)cc2)cc1 | inactive: -3.26%
Nc1cccc2ccc([As](=O)(O)O)cc12 | inactive: 0.96%
CN(C(=O)Cc1ccccc1)C1CC[C@@]2(CCCO2)C[C@@H]1N1CCCC1 (some centres undefined) | inactive: -2.53%
CCN(N=Nc1nonc1N)c1nonc1N | inactive: 6.05%
O=P(Nc1nc2ccc(Cl)cc2s1)(c1ccccc1)c1ccccc1 | inactive: 0.19%
CN(C)P(=O)(N(C)C)n1c(Nc2ccccc2)nnc1-c1ccccc1 | inactive: -3.67%
CC(=O)Nc1ccc([As](=O)(O)O)cc1 | inactive: -0.98%
O=C(O)c1ccccc1[As](=O)(O)O | inactive: 1.14%
CCCC1OP(N)(=O)OCC1CC (centres undefined) | inactive: 3.82%
CCn1c(=O)n(C2CCN(CC3CCCCCCC3)C[C@H]2CO)c2ccccc21 (some centres undefined) | inactive: 0.93%
Cc1cc(SC(NC(=O)c2ccc(F)cc2)C(Cl)(Cl)Cl)ncn1 (centres undefined) | inactive: 1.2%
CCOP(=O)(Nc1ccccc1)OCC | inactive: 2.36%
CN(C(=O)Cc1ccc(Cl)c(Cl)c1)[C@H]1CCCC[C@@H]1N1CCCC1 | inactive: -4.89%

Compound | activation
Cc1ccc(NP(=O)(Oc2ccccc2F)Oc2ccccc2F)nc1 | inactive: 0.95%
O=C(OC1CN2CCC1CC2)c1ccccc1 (centres undefined) | inactive: -1.47%
CCC(=O)N1C2C3N(C(=O)CC)C1C1N(C(=O)CC)C(C(N1C(=O)CC)N3C(=O)CC)N2C(=O)CC | inactive: 0.26%
COC(=O)c1cc2c(s1)N=C(c1ccccc1)N(C)P2(=O)N1CCOCC1 (centres undefined) | inactive: 0.66%
CC(=O)NC(SC(=S)N(CC(C)C)CC(C)C)C(Cl)(Cl)Cl (centres undefined) | inactive: -2.24%
Cc1ccc(OP(=O)(Nc2ccccn2)Oc2ccc(C)cc2)cc1 | inactive: -2.55%
CC(NC(=O)COC(=O)C(O)(c1ccccc1)c1ccccc1)c1ccccc1 (centres undefined) | inactive: 1.75%
Cc1ccccc1OP(=O)(Nc1ccccn1)Oc1ccccc1C | inactive: -5.75%
O=c1c2cc([N+](=O)[O-])ccc2[nH]c2c([N+](=O)[O-])cc([N+](=O)[O-])cc12 | inactive: -4.17%
CN(C)C(=O)Oc1noc2ccccc12 | inactive: -0.06%
c1ccc(-c2nn[nH]n2)c(-c2nn[nH]n2)c1 | inactive: -4.35%
Cc1ccc(NP(=O)(Oc2cccc(C)c2)Oc2cccc(C)c2)nc1 | inactive: -4.63%
O=C(NC1CCS(=O)(=O)C1)NP(=S)(Oc1ccccc1)Oc1ccccc1 (centres undefined) | inactive: -2.82%
CCNC(=S)/N=C(\N)N[N+](=O)[O-] | inactive: -2.89%
O=P1(N(CCCl)CCCl)OCCC2CCCCN21 (centres undefined) | inactive: -8.21%
Cc1ccccc1CN(C)C(=O)COC(=O)C(O)(c1ccccc1)c1ccccc1 | inactive: -0.92%
C[C@H]1OP(=O)(Oc2ccccc2)C[C@@H]2O[C@@H]21 (some centres undefined) | inactive: 2.31%
C[C@@H]1C=CCP(=O)(Oc2ccccc2)O1 (some centres undefined) | inactive: -1.99%
CC(=O)c1ccc(N2CC2c2ccncc2)cc1 (centres undefined) | inactive: 1.44%
N#C/C(=C\c1ccc(N(CCBr)CCBr)cc1)C(N)=O | inactive: 2.11%
